Values quoted from earlier work as cited in patent publication US9951115B2, “CGRP agonist peptides” (priority 2013, dated 2018).

Settings: native CGRP, background statement; cited from earlier work

**Q.** For “Native CGRP: calcitonin gene-related peptide, a 37 amino acid vasoactive neuropeptide”, which half-life is on record?
**A.** less than 30 minutes
